The values that follow are results of earlier work, collected in patent US7235142B2, “Non-toxic corrosion-protection rinses and seals based on cobalt” (University of Dayton, priority 2002, dated 2007).

For the series the following is noted: at or near 25° C. and at or near pH 7.

Like-named read-outs stand apart in the source and are kept apart here.

Regarding Me4N^+ nitrate, for the setting “oxidizer sources”, the “Solubility in Water” value is given as ~1 × 10^1^ mole/L.
Consider Cobalt (II) chlorate, for which, for the setting “cobalt sources”, the “Solubility in Water” value is 16.7 mol/L.
